Only a part is listed here, and it is no random draw. Active and inactive are the calls of the source. The calls were made as follows, unless noted: active = hit-call score of the fitted dose curve at least 0.9, where 1 is the maximum; inactive = score below 0.9.
Legend:
[1] = CCTE_Shafer_MEA_acute_burst_percentage_std: CCTE's Neural Acute Assay for Standard Deviation of Burst Percentage, Shafer Lab (AID 2284018);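 also: fitted in the negative direction so actives lower burst percentage SD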
Outline: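 Primary rat cortical neurons on 16-electrode MEA wells were recorded 40 min at baseline (DIV 13 or 15), then 40 min after compound (0.03-40 uM), at 37 C. Well value is SD across electrodes of spikes-in-bursts/total spikes; endpoint is percent change, DMSO-referenced.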

[2] = CCTE_Shafer_MEA_acute_per_network_burst_spike_number_mean: CCTE's Neural Acute Assay for Average Number of Spikes in a Network Burst, Shafer Lab (AID 2284019);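 also: curve fitted for loss of signal so actives reduce spikes per network burst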
Outline: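 Acute exposure of rat primary cortical networks (DIV 13/15) on MEAs; adaptive spike detection at 8x rms noise, 37 C. Percent change in spikes per network burst after 40 min with compound (0.03-40 uM), negative direction vs DMSO.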

[3] = CCTE_Shafer_MEA_acute_per_network_burst_spike_number_std: CCTE's Neural Acute Assay for Standard Deviation of Number of Spikes in a Network Burst, Shafer Lab (AID 2284020);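 also: fitted for decrease in spike-number SD versus DMSO so actives lower it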
Description: (§1) CCTE_Shafer_MEA_acute assay is conducted using Axion Biosystems 48 well microelectrode array (MEA) plates and Maestro recording system. Each well of the MEA plate contains a grid of 16 microelectrodes embedded in the culture surface. Electrically active cells, such as neurons, can be cultured over the electrodes, and electrical activity in these cells can be recorded extracellularly. The spontaneous firing of neurons is captured from each electrode on a microsecond timescale providing both temporally and spatially precise data. […] The CCTE_Shafer_MEA_acute assay uses primary cultures of rat cortical neurons. […] The recordings before and after chemical treatment are used to calculate a percent change in the standard deviation of the number of spikes in network bursts in each well.Data from the assay component CCTE_Shafer_MEA_acute_burst_spike_number_std was analyzed into 1 assay endpoint. This assay endpoint, CCTE_Shafer_MEA_acute_burst_spike_number_std, was analyzed in the negative analysis fitting direction relative to DMSO as the negative control and baseline of activity. […]
(§2) Spontaneous activity in the cortical cultures was recorded using an Axion Biosystems Maestro 768 channel amplifier and Axion Integrated Studios (AxIS) v1.8 (or later) software. […] Any electrodes with rms noise levels greater than 5 uV were grounded (e.g., no data were recorded). […]

[4] = CCTE_Shafer_MEA_acute_per_network_burst_electrodes_number_mean: CCTE's Neural Acute Assay for Mean Number of Electrodes in a Network Burst, Shafer Lab (AID 2284021);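 also: curves fitted for decreases only so hits reduce electrodes per burst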
Description: as §1, with “mean” for “standard deviation of the”, “electrodes participating” for “spikes”, “CCTE_Shafer_MEA_acute_per_network_burst_electrodes_number_mean” for “CCTE_Shafer_MEA_acute_burst_spike_number_std”, “CCTE_Shafer_MEA_acute_per_network_burst_electrodes_number_mean,” for “CCTE_Shafer_MEA_acute_burst_spike_number_std,”
as §2

[5] = CCTE_Shafer_MEA_acute_network_burst_percentage: CCTE's Neural Acute Assay for Percentage of Network Bursts, Shafer Lab (AID 2284022);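 also: curves fitted for loss so actives lower network burst percentage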
Outline: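 On DIV 13 or 15, at least three wells of rat cortical neurons per compound are dosed at 0.03-40 uM. Spontaneous firing is detected at 8x rms noise for 40 min before and after dosing at 37 C. The percent change in network-burst spike share is reported.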

[6] = CCTE_Shafer_MEA_acute_cross_correlation_area: CCTE's Neural Acute Assay for Area of Cross Correlation, Shafer Lab (AID 2284024);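 also: area under pooled inter-electrode spike cross-correlation near zero lag as percent change from own baseline; curves fitted for loss of cross-correlation area so actives lower synchrony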
Outline: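 Extracellular recordings from cultured rat cortical neurons measure network synchrony as cross-correlation area; each well's post-compound value (0.03-40 uM, 40 min) is compared with its own 40 min baseline to give percent change.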

[7] = CCTE_Shafer_MEA_acute_cross_correlation_HWHM: CCTE's Neural Acute Assay for Cross Correlation at Half Width at Half Maximum, Shafer Lab (AID 2284026);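 also: percent change per well from pre-dose baseline in spike cross-correlogram half width; hits are a decrease in cross-correlogram half width relative to DMSO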
Outline: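 Percent change in cross-correlogram half width at half maximum, narrower meaning more synchrony, was derived per well from paired 40-min recordings before and during exposure to 0.03-40 uM compound in rat cortical cultures at 37 C.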

[8] = CCTE_Shafer_MEA_acute_synchrony_index: CCTE's Neural Acute Assay for Synchrony, Shafer Lab (AID 2284027);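 also: network synchrony index of spontaneous spiking in primary rat cortical neurons on MEAs; fitted for loss of signal so actives lower synchrony relative to DMSO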
Outline: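 Acute exposure of rat primary cortical neurons (DIV 13 or 15) at 0.03-40 uM. Synchrony index, 40 min before vs after, as % change relative to DMSO control.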

DIO2 (gene 1734) = experiment: CCTE_GLTED_hDIO2: CCTE's human Deiodinase 2 (DIO2) Inhibition Assay, Great Lakes Toxicology and Ecology Division (GLTED) Lab (AID 2284050; active = hit-call score of the fitted dose curve at least 0.9, where 1 is the maximum)
Description: CCTE_GLTED_hDIO2 is a cell-free, single-readout assay designed to test the inhibitory activity of chemicals toward human iodothyronine Deiodinase type 2 (DIO2) enzyme. Enzyme is incubated in presence of test chemical for 3 hours during which uninhibited enzyme liberates free iodide from substrate. Free iodide is measured in a second step using the Sandell-Kolthoff method.CCTE_GLTED_hDIO2 is the assay component measured from the CCTE_GLTED_hDIO2 assay. It is designed to make measurements of enzyme activity, a form of enzyme reporter, as detected with absorbance signals by spectrophotometry.Data from the assay component CCTE_GLTED_hDIO2 was analyzed into 1 assay endpoint. This assay endpoint, CCTE_GLTED_hDIO2, was analyzed in the positive analysis fitting direction relative to DMSO as the negative control and baseline of activity. […] Furthermore, this assay endpoint can be referred to as a primary readout, because the performed assay has only produced 1 assay endpoint. […]
Human deiodinase type 2 (hDIO2) assay, developed at Great Lakes Toxicology and Ecology Division (GLTED) within the EPA's Center for Computational Toxicology and Exposure (CCTE), is designed to test the chemicals' ability to inhibit DIO2. Assay is based on iodide release measured by the Sandell-Kolthoff method and is run in 96-well plate format with assay plates run in triplicate (n=3). […]

DIO3 (gene 1735) = experiment: CCTE_GLTED_hDIO3: CCTE's human Deiodinase 3 (DIO3) Inhibition Assay, Great Lakes Toxicology and Ecology Division (GLTED) Lab (AID 2284055; active = hit-call score of the fitted dose curve at least 0.9, where 1 is the maximum;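 also: potency is for inhibition seen as loss of released iodide signal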)
Outline: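 Steps: incubate adenovirus-produced hDIO3 with chemical for 3 hours; detect freed iodide via cerium-arsenic Sandell-Kolthoff colorimetry; compare with DMSO baseline.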

Measured: AC50

O=[N+]([O-])c1ccccc1[N+](=O)[O-]
active: [2] 1.44 µM | [6] 15.5 µM | DIO2 (gene 1734) 52.3 µM | DIO3 (gene 1735) 42.9 µM
inactive: all other assays above

Source: PubChem BioAssay (EPA / NIEHS)
